Source: PubChem BioAssay
Cneo AK release = Cryptococcus neoformans cell lysis inducers, primary screen, AK release luminescence, single concentration; C. neoformans lysis, adenylate kinase release luminescence, 4 h; normalised: neutral wells 0, clomiphene wells 100; lysis activity, % at 15 µM; 360,000 tested, 0.2% active; AID 651654, 2012;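 active = mean lysis activity across replicates of at least 80%, whatever share of replicates individually reach that level; inactive = mean lysis activity below 80%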
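Signal: Adenylate kinase release luminescence | Assay system: Log-phase Cryptococcus neoformans yeast cells | Input: Cells at 5 × 10^6 per mL | Buffer or medium: Fresh YPD growth medium | Compound: Single dose | Schedule: Static 4 h at 37 °C with compound, 1 h detection | Controls: Clomiphene | Read-out: Luminescence rise reflecting yeast cell lysis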
E-selectin induc = E-selectin induction in HUVECs, primary screen, imaging, HUVEC, immunofluorescence imaging, single point; normalized: neutral wells 0, TNF-alpha wells 100; activation, % at 7.58 µM; 260,000 tested, 0.37% active;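 active = mean E-selectin-positive cell signal at least 10% of the positive control, reached in at least 60% of replicates, without over 20% cell loss; inconclusive = no rule given, readout overlaps actives, possibly toxicity-flagged; inactive = the rest, including those meeting only one limit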
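Assay system: HUVEC, human umbilical vein endothelial cells / Amount: 3,000 HUVEC/well / Controls: TNF-alpha positive control, DMSO neutral control / Compound dosing: single concentration / Medium: EGM-2 over gelatin coat / Evaluation: percent E-selectin-positive cells / Signal: immunofluorescence imaging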
UUG fidelity = modulators of start codon recognition fidelity in yeast; S. cerevisiae UUG-firefly luciferase reporter, luminescence/redox ratio; activity score, % at 18.7 µM; hit rate 0.13% among 350,000; AID 602363;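 active = replicate mean at a twofold rise or more, about +100% in these data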;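 note: firefly luciferase made from a UUG start codon reports start codon fidelity; reporter light over untreated wells divided by growth signal over untreated wells; some hits fall short of that in this replicate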
DENV2 CPE rescue = inhibitors of DENV2 cytopathic effect, primary screen, cell-based, plate reader, single concentration. DENV2-infected cells, cytopathic effect rescue. CPE inhibition, % at 9.99 µM. 350,000 tested, 1.7% active. AID 651640, 2012; in the data active = CPE inhibition above about 20%, passing the limit was not always enough; inconclusive = no clear call, values can overlap the other calls; tested in BHK-21 cells;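 also: 0% = median of neutral control wells and 100% = median of positive control wells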
The depositor's hits bear a star; ? = inconclusive; . = not tested or not shown; ! = a repeat was not active. Only some compounds are listed: those with a hit (about 1.8% of all), similar ones and a draw of the others.

Labels used below: A = Cneo AK release; B = E-selectin induc; C = UUG fidelity; D = DENV2 CPE rescue
#1 CC[C@]12c3[nH]c4ccccc4c3CCN1C(=O)C(CC(=O)NCCC1=CCCCC1)C[C@@H]2C(=O)N1CCN(C(=O)C2CC2)CC1 (stereo not given in full)
  A: 1 | B: 0 | C: -18 | D: 54*

#2 C[C@]12c3[nH]c4cc(-c5ccco5)ccc4c3CCN1C(=O)[C@@H](CC(=O)NCCc1ccccn1)C[C@@H]2C(=O)N1CCOCC1
  A: 0 | B: . | C: 0 | D: 50*

#3 CC(C)N(C(=O)[C@H]1C[C@H](CC(=O)NCCCN(C)C)C(=O)N2CCc3c([nH]c4cc(CCC(=O)N(C)C)ccc34)[C@]12C)C(C)C
  A: 2 | B: . | C: -5 | D: 11

#4 CC[C@]12c3[nH]c4cc(CCC(=O)N(C)C)ccc4c3CCN1C(=O)[C@@H](CC(=O)NCc1ccco1)C[C@@H]2C(=O)N1CCN(C(=O)C2CC2)CC1
  A: 1 | B: 0 | C: 7 | D: 25*

#5 CN(C)C(=O)CCc1ccc2c3c([nH]c2c1)[C@]1(CCc2ccccc2)[C@@H](C(=O)N2CCCCC2)C[C@H](CC(=O)NCc2ccco2)C(=O)N1CC3
  A: 1 | B: 0 | C: 6 | D: -10

#6 CCN(CC)C(=O)[C@H]1CC(CC(=O)NC/C=C(\C)CCC=C(C)C)C(=O)N2CCc3c([nH]c4ccc(OC)cc34)[C@]12C (stereo not given in full)
  A: -1 | B: -2 | C: 1 | D: 40*

#7 COc1cccc(S(=O)(=O)N(C)C[C@H]2Oc3cc(C4=CCCC4)ccc3S(=O)(=O)N([C@H](C)CO)C[C@H]2C)c1
  A: -3 | B: 3 | C: -16 | D: -5

#8 COc1cccc(S(=O)(=O)N(C)C[C@H]2Oc3cc(C4=CCCC4)ccc3S(=O)(=O)N([C@H](C)CO)C[C@@H]2C)c1
  A: -5 | B: 0 | C: -3 | D: 38*

#9 Cc1ccc(S(=O)(=O)N(C)C[C@@H]2Oc3cc(C4=CCCC4)ccc3S(=O)(=O)N([C@H](C)CO)C[C@H]2C)cc1
  A: 0 | B: 0 | C: -14 | D: 79*

#10 Cc1ccc(S(=O)(=O)N(C)C[C@H]2Oc3cc(C4=CCCC4)ccc3S(=O)(=O)N([C@@H](C)CO)C[C@@H]2C)cc1
  A: -4 | B: 0 | C: -18 | D: 3

#11 COc1ccccc1NC(=O)N[C@H]1C=C[C@@H](CC(=O)NCc2ccc(Cl)c(Cl)c2)O[C@@H]1CO
  A: 0 | B: 0 | C: 33 | D: ?

#12 COc1ccccc1CNC(=O)C[C@H]1CC[C@@H]2[C@H](COC[C@H](O)CN2C(=O)Nc2ccc(C(F)(F)F)cc2)O1
  A: 1 | B: 0 | C: 2 | D: ?

#13 CO[C@@H]1CN(C)C(=O)c2ccc(NC(=O)C3CC3)cc2OC[C@H](C)N(Cc2ccccc2)C[C@@H]1C
  A: 62 | B: 0 | C: 26 | D: -1

#14 COc1cccc(NC(=O)C2C3C=CC4(O3)C2C(=O)N(CCCN2CCC(C)CC2)C4C(=O)NC2CCCCC2)c1 (stereo not given)
  A: 1 | B: 0 | C: -1 | D: -2

#15 COc1cccc(NC(=O)C2C3C=CC4(O3)C2C(=O)N(CCCN2CCCCC2)C4C(=O)NC2CCCCC2)c1 (stereo not given)
  A: 0 | B: 29* | C: -2 | D: 5

3 entries from above, with two lines to a compound:
Order of values: Cneo AK release | E-selectin induc | UUG fidelity | DENV2 CPE rescue
11: COc1ccccc1NC(=O)N[C@H]1C=C[C@@H](CC(=O)NCc2ccc(Cl)c(Cl)c2)O[C@@H]1CO
    0 | 0 | 33 | ?
12: COc1ccccc1CNC(=O)C[C@H]1CC[C@@H]2[C@H](COC[C@H](O)CN2C(=O)Nc2ccc(C(F)(F)F)cc2)O1
    1 | 0 | 2 | ?
13: CO[C@@H]1CN(C)C(=O)c2ccc(NC(=O)C3CC3)cc2OC[C@H](C)N(Cc2ccccc2)C[C@@H]1C
    62 | 0 | 26 | -1

Next part
Labels used below: A = Cneo AK release; B = E-selectin induc; C = UUG fidelity; D = DENV2 CPE rescue
#16 Cc1cccc(S(=O)(=O)N2C[C@H](O)COC[C@H]3O[C@@H](CC(=O)NCCCN4CCOCC4)CC[C@@H]32)c1
  A: 2 | B: 0 | C: -9 | D: -14

#17 Cc1noc(C)c1NC(=O)N[C@H]1CC[C@@H](CCNC(=O)C2CCC2)O[C@@H]1CO
  A: -4 | B: 0 | C: -9 | D: -9

#18 COc1ccc(C2=Nn3c(nnc3-c3ccccc3Cl)SC2)cc1OCC1CC1
  A: -1 | B: 0 | C: -21 | D: 32*

#19 COc1ccc(OC)c(-c2nnc3n2N=C(c2ccc(OC)c(OCC4CC4)c2)CS3)c1
  A: -3 | B: . | C: -8 | D: .

#20 C[C@@H]1CN([C@H](C)CO)C(=O)c2cc(C#Cc3ccc(F)cc3)cnc2O[C@@H]1CN(C)C(=O)c1ccccc1F
  A: -2 | B: 0 | C: 15 | D: 45*

#21 C[C@H](CO)N1C[C@H](C)[C@@H](CN(C)C(=O)Cc2cccnc2)Oc2ncc(C3=CCCCC3)cc2C1=O
  A: 2 | B: 0 | C: 16 | D: 5

#22 C[C@H](CO)N1C[C@H](C)[C@H](CN(C)C(=O)c2ccccc2F)Oc2ncc(C#Cc3ccc(F)cc3)cc2C1=O
  A: 3 | B: 0 | C: 0 | D: -6

#23 CC(C)NC(=O)N(C)C[C@H]1Oc2ncc(-c3ccccc3F)cc2C(=O)N([C@H](C)CO)C[C@H]1C
  A: -2 | B: 0 | C: 0 | D: 17

#24 C[C@H]1CN([C@@H](C)CO)C(=O)c2cc(-c3ccccc3)cnc2O[C@@H]1CN(C)C(=O)c1ccccn1
  A: 105* | B: 0 | C: -5 | D: -2

#25 CC(C)NC(=O)N(C)C[C@@H]1Oc2ncc(-c3ccccc3F)cc2C(=O)N([C@@H](C)CO)C[C@H]1C
  A: -2 | B: 0 | C: -1 | D: 23*

#26 C[C@@H]1CN([C@H](C)CO)C(=O)c2cc(C3=CCCCC3)cnc2O[C@@H]1CN(C)C(=O)Cc1cccnc1
  A: -1 | B: 0 | C: -13 | D: 56*

#27 CN1C(=O)c2cc(NC(=O)c3ccc(F)cc3)ccc2OC[C@@H]2O[C@H](CC(=O)NC3CCC3)CC[C@@H]21
  A: 71 | B: 0 | C: 23 | D: -1

#28 O=C(C[C@H]1C[C@H]2c3cc(NC(=O)CC4CC4)ccc3O[C@H]2[C@@H](CO)O1)NCCc1ccccc1
  A: -8 | B: 1 | C: 2 | D: -4

#29 C[C@H](CO)N1C[C@H](C)[C@H](CN(C)C(=O)c2ccccn2)Oc2ncc(C3=CCCCC3)cc2C1=O
  A: -2 | B: -1 | C: 1 | D: 62*

#30 C[C@@H]1CN([C@H](C)CO)C(=O)c2cc(-c3ccccc3)cnc2O[C@@H]1CN(C)C(=O)c1ccccc1F
  A: 1 | B: 0 | C: 3 | D: 105*

(next part)
Labels used below: A = Cneo AK release; B = E-selectin induc; C = UUG fidelity; D = DENV2 CPE rescue
#31 C[C@H]1CN([C@@H](C)CO)C(=O)c2cc(C3=CCCCC3)cnc2O[C@@H]1CN(C)C(=O)c1ccccn1
  A: -2 | B: 0 | C: -3 | D: 0

#32 C[C@@H]1CN([C@@H](C)CO)C(=O)c2cc(C#Cc3ccccc3F)cnc2O[C@H]1CN(C)S(=O)(=O)c1ccccc1F
  A: 1 | B: 0 | C: -7 | D: 35*

#33 C/C=C/c1cnc2c(c1)C(=O)N([C@H](C)CO)C[C@@H](C)[C@@H](CN(C)C(=O)Nc1ccccc1F)O2
  A: . | B: 0 | C: . | D: 30*

#34 COc1ccccc1-c1cn(CC[C@@H]2CC[C@H](NC(=O)c3cnccn3)[C@@H](CO)O2)nn1
  A: -2 | B: 0 | C: . | D: 0

#35 C[C@H](CO)N1C[C@H](C)[C@H](CN(C)C(=O)c2ccccn2)Oc2ncc(Br)cc2C1=O
  A: -1 | B: 0 | C: -11 | D: 73*!

#36 C[C@H]1CN([C@@H](C)CO)C(=O)c2cc(-c3ccc(F)cc3)cnc2O[C@@H]1CN(C)C(=O)c1ccccn1
  A: -4 | B: 1 | C: -5 | D: -5

#37 C[C@H](CO)N1C[C@H](C)[C@H](CN(C)C(=O)c2ccccn2)Oc2ncc(-c3ccccc3)cc2C1=O
  A: 81* | B: 0 | C: 11 | D: -1

#38 COc1ccccc1C(=O)Nc1ccc2c(c1)C(=O)N(C)C[C@H](OC)[C@H](C)CN(CC1CC1)[C@H](C)CO2
  A: -18 | B: 0 | C: -3 | D: -3

#39 CNC[C@@H]1Oc2c(NS(=O)(=O)c3cccs3)cccc2C(=O)N([C@@H](C)CO)C[C@H]1C
  A: 86* | B: 0 | C: 18 | D: -15
